From ChEMBL document CHEMBL3091365, “Optimization of O3-acyl kojic acid derivatives as potent and selective human neutrophil elastase inhibitors” (J Med Chem, 2013)

Target: T1, Neutrophil elastase (Homo sapiens, UniProt P08246)
T1 sequence (P08246 whole entry): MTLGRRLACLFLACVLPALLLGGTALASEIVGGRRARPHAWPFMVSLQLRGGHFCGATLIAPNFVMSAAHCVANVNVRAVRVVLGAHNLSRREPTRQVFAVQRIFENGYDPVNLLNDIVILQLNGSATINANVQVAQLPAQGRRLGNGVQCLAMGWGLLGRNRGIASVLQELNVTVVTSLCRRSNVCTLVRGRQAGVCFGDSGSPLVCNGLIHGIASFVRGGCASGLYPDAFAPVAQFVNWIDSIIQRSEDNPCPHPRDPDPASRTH
Experiment: Inhibition of human neutrophil elastase using MeO-Suc-Ala-Ala-Pro-Val-AMC as substrate incubated for 30 mins prior to substrate addition measured for 30 mins by fluorescence assay

## CC(C)(C)C(=O)Oc1ccc(S(=O)(=O)Nc2ccccc2C(=O)NCC(=O)O)cc1
  IC50: 10 nM
